Results reported in BindingDB's records for patent US11026923 (H. Lundbeck, 2021).

Amino acid sequences for entries named in this document (tags omitted).
UniProt Q14123, whole entry: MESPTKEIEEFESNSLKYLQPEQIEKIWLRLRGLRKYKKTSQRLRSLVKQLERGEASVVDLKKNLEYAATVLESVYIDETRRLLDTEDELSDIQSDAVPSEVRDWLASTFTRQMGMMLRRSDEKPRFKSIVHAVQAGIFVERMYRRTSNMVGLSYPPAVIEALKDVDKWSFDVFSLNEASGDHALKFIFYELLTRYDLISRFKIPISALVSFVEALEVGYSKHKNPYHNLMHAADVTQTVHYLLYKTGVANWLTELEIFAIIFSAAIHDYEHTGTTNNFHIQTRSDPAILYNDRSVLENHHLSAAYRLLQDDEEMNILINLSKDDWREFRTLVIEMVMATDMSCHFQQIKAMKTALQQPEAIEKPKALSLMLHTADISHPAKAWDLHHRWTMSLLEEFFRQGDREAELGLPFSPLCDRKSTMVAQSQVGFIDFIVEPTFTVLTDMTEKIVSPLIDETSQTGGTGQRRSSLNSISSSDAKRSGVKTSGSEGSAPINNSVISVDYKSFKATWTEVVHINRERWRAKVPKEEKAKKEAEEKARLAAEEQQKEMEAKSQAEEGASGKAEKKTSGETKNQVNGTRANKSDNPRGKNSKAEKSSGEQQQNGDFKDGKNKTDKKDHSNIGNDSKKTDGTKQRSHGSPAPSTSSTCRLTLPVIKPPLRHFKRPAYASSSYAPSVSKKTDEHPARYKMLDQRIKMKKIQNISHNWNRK

Target: Dual specificity calcium/calmodulin-dependent 3',5'-cyclic nucleotide phosphodiesterase 1C (Human, UniProt Q14123)
Experiment: Inhibition Assay

CC1=NN(C(C)C)/C(=C(/C=C/c2ccsc2C)NCc2cnn(C)c2)C1 [US11026923, Example 65]
IC50: 16 nM
